# Measurements as given in patent US4324796A, “Substituted oxiranecarboxylic acids, their use and medicaments containing them” (BYK Gulden Lomberg Chemische Fabrik Gesellschaft mit …, priority 1979, dated 1982).
# Tested on: blood glucose concentration
# Test: Blood glucose lowering after single oral administration, fasting metabolically healthy guinea pigs
# Assay type: in vivo, guinea pigs (young cross-bred male)
# Settings: Cavia porcellus, Table III column A, guinea pig p.o., 5 hours, vs control group, read-out: ED50 (25%): dose which effects a lowering of the blood glucose concentration by at least 25% in 50% of the animals
row,SMILES,ED50 [mg/kg]
1,"CCOC(=O)C1(CCCCCc2ccccc2)CO1 (stereo not shown) [Serial No. 7, 2-(5-Phenylpentyl)oxirane-2-carboxylic acid ethyl ester]",21
2,"CCOC(=O)C1(CCCc2ccc(Cl)cc2)CO1 (stereo not shown) [Serial No. 3, 2-[3-(4-Chlorophenyl)propyl]oxirane-2-carboxylic acid ethyl ester]",22
3,"CCOC(=O)C1(CCCCCc2ccc(Cl)cc2)CO1 (stereo not shown) [Serial No. 9, 2-[5-(4-Chlorophenyl)pentyl]oxirane-2-carboxylic acid ethyl ester]",< 24
4,"CCOC(=O)C1(CCCc2cccc(C(F)(F)F)c2)CO1 (stereo not shown) [Serial No. 5, 2-[3-(3-Trifluoromethylphenyl)propyl]oxirane-2-carboxylic acid ethyl ester]",< 24
